According to patent publication US20240307427A1, “REMDESIVIR COCRYSTAL, COMPOSITIONS AND METHODS THEREOF” (priority 2023, published 2024):

Test: Thermal stability of RDV under annealing at 80° C. (RDV assay by HPLC)
Format: physicochemical
Settings: annealing 80° C., 30 min, triplicate

In the case of `CCC(CC)COC(=O)C(C)NP(=O)(OCC1OC(C#N)(c2ccc3c(N)ncnn23)C(O)C1O)Oc1ccccc1.O=C(O)c1ccccc1O` (centres unmarked) [RDV−SA, cocrystal of remdesivir and salicylic acid], the “% Assay of RDV after exposed to thermal annealing” value (listed as RDV-SA_LAG) is reported as 98.91 ± 1.25% and the “% Assay of RDV after exposed to thermal annealing” value (listed as RDV−SA cocrystal) is reported as 98.91±1.25%.
